Molecular target: T1, Human neutrophilic elastase (Homo sapiens, UniProt P08246)
T1 construct: purchased Sigma
T1 sequence (P08246 30-267): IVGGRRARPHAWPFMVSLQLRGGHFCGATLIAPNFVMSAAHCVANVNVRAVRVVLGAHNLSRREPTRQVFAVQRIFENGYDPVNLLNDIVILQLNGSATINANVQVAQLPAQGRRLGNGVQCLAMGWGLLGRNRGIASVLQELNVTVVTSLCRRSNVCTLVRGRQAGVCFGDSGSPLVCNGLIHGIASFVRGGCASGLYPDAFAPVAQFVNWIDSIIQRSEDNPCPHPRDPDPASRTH
Assay: Human neutrophilic elastase inhibitory activity in vitro (fluorogenic substrate)
Type: biochemical
Conditions: 37° C., pH 7.5

IC50: 17 nM
Compound: CC(C)(C)C(=O)Oc1ccc(S(=O)(=O)Nc2ccccc2C(=O)NCC(=O)O)cc1 [Control (a), reference compound]

Reference: patent US6835714B1, “Heterocyclic compounds, intermediates thereof and elastase inhibitors” (Dainippon Pharmaceutical Co., Ltd., priority 1999, dated 2004)
